Experiments:
[1] = tested on: ΔFosB; test: Western blotting of ΔFosB in brain regions after METH withdrawal; assay type: in vivo, rat; conditions: mirtazapine treatment group, day 31; data not shown
[2] = tested on: METH-sensitized rats; test: Reversal of METH-induced behavioral sensitization by 5-HT2A/2C antagonists (motor activity after acute METH challenge); conditions: rat, in vivo
Excerpt: Automation of observational evaluations was accomplished using computerized small animal monitors (AccuScan Instr. Inc., Columbus, Ohio). […] One feature of drug-induced behavioral sensitization is heterogeneity of motor responses and the AccuScan monitors quantify numerous behavioral indices. This is a critical point for the motor profile is exquisitely related to METH dose, the drug history of the rat and observation time. After 3- or 31-days of withdrawal from repeated METH injections, rats were allowed to achieve baseline motor activity with a 30 min habituation period, challenged with 1 mg/kg sc METH and monitored for 90 min. As shown in FIGS. 1a-b, a “sensitized” motor response was clearly expressed in the METH-pretreatment group to the METH challenge at the 3-day withdrawal period for both Horizontal Activity and Stereotypy Counts (data not shown) and with slight early effects on Vertical Movements.
Multiple 5-HT2A/2C antagonists with differing pharmacological profiles were tested for their ability to ameliorate METH-induced behavioral sensitization when administered after sensitization has developed. […]. The doses were selected based on the antagonists' ability to block 5-HT2A- and 5-HT2C-mediated activity and their pharmacokinetic profiles. […]

Compound: CN1CCN2c3ncccc3Cc3ccccc3[C@@H]2C1 (racemic) [mirtazapine, 1,2,3,4,10,14b-hexahydro-2-methyl-pyrazino[2,1-a]pyrido[2,3-c]benzazepine]
- ΔFosB signal in the nucleus accumbens [1]: loss of increased ΔFosB early signal

Compound: CN1CCN2c3ccccc3Cc3ccccc3C2C1 (centres unmarked) [mianserin]
- number of vertical movements [2]: appeared to have an independent effect

Reference: patent US20060035889A1, “Treatment for methamphetamine addiction and reduction of methamphetamine use using serotonin antagonists” (priority 2004, published 2006)
